The list shows a part of the results, in another mix than the full data.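 The test compound was applied at a single concentration to cells in 96-well plates for 48 hours, and percent growth was recorded.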 Calls of active or inactive are those of the source. The calls were made as follows: active = growth percent below 10; inactive = the rest.
Legend:
Experiment in all cases: NCI-60 one-dose screen, 48 h (100 = growth as untreated, 0 = no growth, -100 = all killed)
MALME-3M melanoma = details: 10 µM unless noted
MDA-MB-231 breast = details: 10 µM unless noted
RXF 393 renal = details: 10 µM unless noted
SF-268 CNS = details: 10 µM unless noted
SF-295 CNS = details: 10 µM unless noted
SF-539 CNS = details: 10 µM unless noted
UACC-257 melanoma = details: 10 µM unless noted
M14 melanoma = details: 10 µM unless noted
HCT-15 colon = details: 10 µM unless noted
HT29 colon = details: 10 µM unless noted
SNB-75 CNS = details: 10 µM unless noted
SNB-19 CNS = details: 10 µM unless noted
U251 CNS = details: 10 µM unless noted
PC-3 prostate = details: 10 µM unless noted
SK-MEL-5 melanoma = details: 10 µM unless noted
UACC-62 melanoma = details: 10 µM unless noted
LOX IMVI melanoma = details: 10 µM
SK-MEL-28 melanoma = details: 10 µM unless noted
DU-145 prostate = details: 10 µM unless noted
K-562 leukemia = details: 10 µM unless noted

Measured: growth

O=P(O)(O)F
inactive: MALME-3M melanoma 100% | MDA-MB-231 breast 103% | RXF 393 renal 111% | SF-268 CNS 105% | SF-295 CNS 93.6% | SF-539 CNS 116% | UACC-257 melanoma 95.9% | M14 melanoma 111% | HCT-15 colon 101% | HT29 colon 106% | SNB-75 CNS 114% | SNB-19 CNS 106% | U251 CNS 93.1% | PC-3 prostate 93.2% | SK-MEL-5 melanoma 101% | UACC-62 melanoma 102% | LOX IMVI melanoma 99.3% | SK-MEL-28 melanoma 119%

C/C(N)=N\P(=O)(OCc1ccccc1)OCc1ccccc1
inactive: DU-145 prostate 125% | K-562 leukemia 103% | MDA-MB-231 breast 103% | RXF 393 renal 105% | SF-268 CNS 114% | SF-295 CNS 84.5% | SF-539 CNS 102% | UACC-257 melanoma 79.5% | M14 melanoma 94.9% | HCT-15 colon 96.5% | HT29 colon 106% | SNB-75 CNS 90.6% | SNB-19 CNS 104% | U251 CNS 99.1% | PC-3 prostate 100% | SK-MEL-5 melanoma 105% | UACC-62 melanoma 95.7% | LOX IMVI melanoma 99.2% | SK-MEL-28 melanoma 105%

C=CCOP(O)OCC=C
inactive: DU-145 prostate 107% | K-562 leukemia 107% | MALME-3M melanoma 97.4% | RXF 393 renal 105% | SF-268 CNS 106% | SF-295 CNS 102% | SF-539 CNS 98.1% | UACC-257 melanoma 103% | M14 melanoma 99.9% | HCT-15 colon 109% | HT29 colon 105% | SNB-75 CNS 102% | U251 CNS 107% | PC-3 prostate 96.2% | SK-MEL-5 melanoma 104% | UACC-62 melanoma 96.1% | LOX IMVI melanoma 97.1% | SK-MEL-28 melanoma 107%

O=[N+]([O-])c1ccc(SSc2ccc([N+](=O)[O-])cc2[N+](=O)[O-])c([N+](=O)[O-])c1
inactive: DU-145 prostate 110% | K-562 leukemia 24% | MDA-MB-231 breast 88.1% | SF-268 CNS 103% | SF-295 CNS 103% | UACC-257 melanoma 95.7% | M14 melanoma 97.8% | HT29 colon 105% | SNB-75 CNS 82.2% | SNB-19 CNS 102% | U251 CNS 102% | PC-3 prostate 92.6% | SK-MEL-5 melanoma 103% | LOX IMVI melanoma 80.3% | SK-MEL-28 melanoma 114%

CCCCCCCCCCNP(=S)(Cl)Cl
inactive: DU-145 prostate 113% | K-562 leukemia 92.9% | MALME-3M melanoma 106% | MDA-MB-231 breast 98.8% | SF-268 CNS 105% | SF-295 CNS 97.4% | SF-539 CNS 98.5% | UACC-257 melanoma 97.1% | M14 melanoma 102% | HCT-15 colon 102% | HT29 colon 101% | SNB-75 CNS 90.9% | SNB-19 CNS 97.8% | U251 CNS 95.4% | PC-3 prostate 99% | SK-MEL-5 melanoma 101% | UACC-62 melanoma 95.4% | LOX IMVI melanoma 99% | SK-MEL-28 melanoma 106%

CCOP(=S)(OCC)OCC
inactive: DU-145 prostate 108% | K-562 leukemia 124% | MDA-MB-231 breast 134% | RXF 393 renal 106% | SF-268 CNS 113% | SF-539 CNS 98.7% | UACC-257 melanoma 107% | M14 melanoma 106% | HCT-15 colon 94.9% | HT29 colon 96.2% | SNB-75 CNS 89.5% | SNB-19 CNS 103% | U251 CNS 102% | PC-3 prostate 102% | SK-MEL-5 melanoma 104% | UACC-62 melanoma 106% | LOX IMVI melanoma 100% | SK-MEL-28 melanoma 106%

Cc1c([N+](=O)[O-])cc(C(=O)c2cc([N+](=O)[O-])cc([N+](=O)[O-])c2)cc1[N+](=O)[O-]
inactive: DU-145 prostate 99.2% | K-562 leukemia 83.3% | MALME-3M melanoma 70.4% | MDA-MB-231 breast 92.6% | SF-268 CNS 105% | SF-295 CNS 109% | SF-539 CNS 105% | UACC-257 melanoma 89.3% | M14 melanoma 97.8% | HCT-15 colon 101% | HT29 colon 108% | SNB-75 CNS 94.9% | SNB-19 CNS 107% | U251 CNS 94.8% | PC-3 prostate 80.5% | SK-MEL-5 melanoma 61.1% | UACC-62 melanoma 92% | LOX IMVI melanoma 91.4% | SK-MEL-28 melanoma 107%

COC(=O)C(=[N+]=[N-])C(=O)c1cc([N+](=O)[O-])cc([N+](=O)[O-])c1
inactive: DU-145 prostate 107% | MALME-3M melanoma 113% | RXF 393 renal 108% | SF-268 CNS 106% | SF-295 CNS 91.7% | SF-539 CNS 110% | UACC-257 melanoma 105% | M14 melanoma 100% | HCT-15 colon 102% | HT29 colon 131% | SNB-75 CNS 105% | SNB-19 CNS 109% | U251 CNS 107% | PC-3 prostate 99% | SK-MEL-5 melanoma 108% | UACC-62 melanoma 111% | LOX IMVI melanoma 119% | SK-MEL-28 melanoma 113%

— PubChem BioAssay (NCI)
